System: vesicular stomatitis virus
Assay type: cell-based
Details: added 24 hours before 100-fold lethal dose of virus, read 24 hours after

In the case of “Prep. D: Example 25: nonmodified native Interferon-α2”, the Antiviral titer is reported as 2×10^5.

Reference: patent US6387406B1, “Copolymer compositions for oral delivery” (Supratek Pharma Inc., priority 1992, dated 2002)
